Measured melting point values of organic chemicals

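The OPERA project collected these measurements from public sources as training and test data for property models. One number stands for a compound and property, with no spread given. Method and conditions are not stated for these values. Where a salt, mixture or single isomer is drawn, the source does not say that exactly this form was tested. Some upstream entries may be estimates or bounds without being marked so.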

The melting point is given in degrees Celsius. The databases behind each value are named after "via".

mp (°C)	compound	via
252	O=C(O)c1cnc2ccccn2c1=O	OCHEM
140	COc1ccccc1N1CC(C(=O)O)CC1=O (centres undefined)	OCHEM
136	CCc1nc2c(C)nc(C)cc2n1-c1ccc(CCNC(=O)NS(=O)(=O)c2ccc(C)cc2)cc1	PubChem
132	Nc1ccccc1OCCOc1ccccc1N	eChemPortal
268	O=C(O)c1ccc(-n2cccn2)nc1	OCHEM
274	CC1CC(C)(C)CC2(C1)NC(=O)NC2=O (centres undefined)	OCHEM
221	Cc1ccc(-c2nn(-c3ccccc3)cc2C=CC(=O)O)cc1	OCHEM
109	NN1CCN(C(c2ccccc2)c2ccccc2)CC1	OCHEM
175	CC(C)CC(C)OC(=O)CC(C(=O)OC(C)CC(C)C)S(=O)(=O)[O-].[Na+] (centres undefined)	eChemPortal
182	O=C(O)CCn1cnc2ccccc2c1=O	OCHEM
76	CCN(CC)S(=O)(=O)c1ccc(N2CCCCC2)c(N)c1	OCHEM
89	O=Cc1ccc(OCc2ccccn2)cc1	OCHEM
193	O=[N+]([O-])c1ccc2[nH]c(=S)oc2c1	OCHEM
43.8	Fc1ccc2c(c1)CC[C@H]([C@H]1CO1)O2	eChemPortal
40	O=Cc1sc(Cl)nc1Cl	OCHEM
155	Cc1cc(C)c(NC(=O)CCl)c(C)c1	OCHEM
95	O=C(Nc1ccccn1)C1CCCNC1 (centres undefined)	OCHEM
191	Nc1nc(-c2cccnc2)cs1	OCHEM
236	CS(=O)(=O)[O-].C[n+]1ccccc1/C=N/O	OCHEM
126.5	CCOC(=O)C(=O)C(C#N)c1ccccc1 (centres undefined)	OCHEM
110	CN(C)CCCN1c2ccccc2Sc2cccnc21.Cl	OCHEM
87	O=C1C=CC(=O)N1c1cccc(Cl)c1	OCHEM
143	O=C(O)CNc1ccc(Cl)cc1	OCHEM
268	O=C(O)c1ccc(NS(=O)(=O)c2cccc([N+](=O)[O-])c2)cc1	OCHEM
194	COC(=O)c1ccc2[nH]ncc2c1	OCHEM
135	O=C1CCc2cc(F)ccc2N1	OCHEM
164	CC(=O)Oc1cc(C(=O)O)cc(OC(C)=O)c1OC(C)=O	OCHEM
193	NC(=O)NC1CCCC1	OCHEM
46.5	CCOc1ccc(C(C)O)cc1 (centres undefined)	OCHEM
35	CC(C)(C)OC(=O)N1CCN(CCN)CC1	OCHEM
139	NC(=S)NC1CC1	OCHEM
87	COC(=O)C(=O)CC(=O)c1ccc(C)cc1	OCHEM
-89.97	C1C[C@@H]2[C@H]3CC[C@H](C3)[C@@H]2C1	eChemPortal
116	CSCCC(NC(=O)c1cccc(C)c1)C(=O)O (centres undefined)	OCHEM
210	Oc1ccc(-n2cnnn2)cc1	OCHEM

Again, the 4 entries with the lowest mp:

compound	mp (°C)	via
C1C[C@@H]2[C@H]3CC[C@H](C3)[C@@H]2C1	-89.97	eChemPortal
CC(C)(C)OC(=O)N1CCN(CCN)CC1	35	OCHEM
O=Cc1sc(Cl)nc1Cl	40	OCHEM
Fc1ccc2c(c1)CC[C@H]([C@H]1CO1)O2	43.8	eChemPortal

Values as listed in the OPERA 2.9 repository of K. Mansouri.